Experimental data reported in ChEMBL document CHEMBL5442175, “EUbOPEN Chemogenomics Library - PDSP Secondary Binding” (2024).

Chains of the proteins cited; added tags and fusions are not shown.
UniProt P34969, whole entry, looked up: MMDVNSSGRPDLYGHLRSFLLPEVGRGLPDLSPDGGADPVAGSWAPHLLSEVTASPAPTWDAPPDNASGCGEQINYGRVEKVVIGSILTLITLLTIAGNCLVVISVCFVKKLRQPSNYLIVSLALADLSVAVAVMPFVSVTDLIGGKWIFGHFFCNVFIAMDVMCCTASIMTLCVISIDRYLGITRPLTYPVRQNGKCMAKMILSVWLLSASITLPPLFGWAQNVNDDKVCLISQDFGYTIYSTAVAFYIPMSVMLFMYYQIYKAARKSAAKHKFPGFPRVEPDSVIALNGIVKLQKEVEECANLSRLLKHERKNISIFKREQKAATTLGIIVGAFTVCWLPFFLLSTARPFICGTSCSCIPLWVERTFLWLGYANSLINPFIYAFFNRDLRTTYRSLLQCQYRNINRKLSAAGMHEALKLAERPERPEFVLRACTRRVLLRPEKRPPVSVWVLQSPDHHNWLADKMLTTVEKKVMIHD
UniProt P31645, whole entry, looked up: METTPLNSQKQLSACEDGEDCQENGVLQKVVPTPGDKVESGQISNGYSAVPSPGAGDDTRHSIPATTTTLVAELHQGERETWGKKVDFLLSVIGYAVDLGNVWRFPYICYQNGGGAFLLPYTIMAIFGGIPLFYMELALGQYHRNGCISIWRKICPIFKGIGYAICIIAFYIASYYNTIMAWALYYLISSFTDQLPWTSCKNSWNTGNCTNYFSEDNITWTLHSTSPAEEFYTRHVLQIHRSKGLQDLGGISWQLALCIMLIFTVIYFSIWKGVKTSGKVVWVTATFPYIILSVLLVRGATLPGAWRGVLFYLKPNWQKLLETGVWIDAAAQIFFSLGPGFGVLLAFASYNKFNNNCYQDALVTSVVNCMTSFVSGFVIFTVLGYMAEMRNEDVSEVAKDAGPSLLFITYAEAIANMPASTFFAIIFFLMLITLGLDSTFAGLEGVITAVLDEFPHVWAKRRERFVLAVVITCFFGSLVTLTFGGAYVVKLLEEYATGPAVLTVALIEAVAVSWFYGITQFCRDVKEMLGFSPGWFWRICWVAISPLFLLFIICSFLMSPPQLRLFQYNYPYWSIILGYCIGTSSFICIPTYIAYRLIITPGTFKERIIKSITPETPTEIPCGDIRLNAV
UniProt P35462, whole entry, looked up: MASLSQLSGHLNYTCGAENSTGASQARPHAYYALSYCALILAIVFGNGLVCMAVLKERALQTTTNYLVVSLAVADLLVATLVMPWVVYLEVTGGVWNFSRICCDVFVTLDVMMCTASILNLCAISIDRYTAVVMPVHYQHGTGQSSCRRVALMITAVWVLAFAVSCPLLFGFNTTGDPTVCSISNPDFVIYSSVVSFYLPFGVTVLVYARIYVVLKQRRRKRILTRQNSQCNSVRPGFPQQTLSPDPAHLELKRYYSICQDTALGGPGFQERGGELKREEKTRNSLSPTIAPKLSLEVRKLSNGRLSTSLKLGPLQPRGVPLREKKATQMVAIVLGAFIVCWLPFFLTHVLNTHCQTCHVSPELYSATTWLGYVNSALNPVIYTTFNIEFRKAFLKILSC
UniProt Q01959, whole entry, looked up: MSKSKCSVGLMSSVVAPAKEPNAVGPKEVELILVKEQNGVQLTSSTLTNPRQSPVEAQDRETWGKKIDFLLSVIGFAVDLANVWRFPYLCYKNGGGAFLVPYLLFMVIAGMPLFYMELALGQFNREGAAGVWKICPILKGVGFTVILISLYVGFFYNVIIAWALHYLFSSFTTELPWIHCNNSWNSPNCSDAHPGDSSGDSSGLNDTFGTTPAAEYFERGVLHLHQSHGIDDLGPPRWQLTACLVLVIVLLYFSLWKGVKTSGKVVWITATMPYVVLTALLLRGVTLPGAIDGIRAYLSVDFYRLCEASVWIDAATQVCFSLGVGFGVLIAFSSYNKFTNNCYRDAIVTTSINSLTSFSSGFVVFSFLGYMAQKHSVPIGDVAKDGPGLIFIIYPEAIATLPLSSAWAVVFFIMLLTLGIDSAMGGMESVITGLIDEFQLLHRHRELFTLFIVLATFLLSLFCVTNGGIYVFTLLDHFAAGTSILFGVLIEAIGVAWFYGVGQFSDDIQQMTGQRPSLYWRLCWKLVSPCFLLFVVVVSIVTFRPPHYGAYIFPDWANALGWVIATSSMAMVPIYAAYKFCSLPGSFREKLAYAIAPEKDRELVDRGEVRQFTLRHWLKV
UniProt P35367, whole entry, looked up: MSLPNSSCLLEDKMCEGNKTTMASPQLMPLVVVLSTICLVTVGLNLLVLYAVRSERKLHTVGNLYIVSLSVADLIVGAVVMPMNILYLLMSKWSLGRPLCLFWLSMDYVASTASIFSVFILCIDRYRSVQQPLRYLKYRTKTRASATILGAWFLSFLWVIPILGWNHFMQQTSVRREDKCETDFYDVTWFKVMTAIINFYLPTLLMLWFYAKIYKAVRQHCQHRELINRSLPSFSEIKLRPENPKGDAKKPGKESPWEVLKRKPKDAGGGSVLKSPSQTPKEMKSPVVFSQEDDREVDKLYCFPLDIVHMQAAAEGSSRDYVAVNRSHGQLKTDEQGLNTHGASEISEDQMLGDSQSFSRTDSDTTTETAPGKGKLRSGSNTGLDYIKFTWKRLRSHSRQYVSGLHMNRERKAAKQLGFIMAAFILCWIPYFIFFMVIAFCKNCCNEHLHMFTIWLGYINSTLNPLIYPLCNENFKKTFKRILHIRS
UniProt P50406, whole entry, looked up: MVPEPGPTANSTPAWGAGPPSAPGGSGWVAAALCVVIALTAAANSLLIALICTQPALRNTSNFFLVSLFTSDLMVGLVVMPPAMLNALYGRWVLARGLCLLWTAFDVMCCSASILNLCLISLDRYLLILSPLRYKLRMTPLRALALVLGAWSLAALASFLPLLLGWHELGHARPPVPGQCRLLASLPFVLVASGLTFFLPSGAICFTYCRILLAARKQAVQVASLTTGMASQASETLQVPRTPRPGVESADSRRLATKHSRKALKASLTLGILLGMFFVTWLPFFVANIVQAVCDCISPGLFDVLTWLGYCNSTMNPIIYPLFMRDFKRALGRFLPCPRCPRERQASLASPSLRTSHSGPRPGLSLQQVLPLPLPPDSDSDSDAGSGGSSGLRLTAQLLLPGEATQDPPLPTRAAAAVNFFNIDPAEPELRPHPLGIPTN
UniProt P08588, whole entry, looked up: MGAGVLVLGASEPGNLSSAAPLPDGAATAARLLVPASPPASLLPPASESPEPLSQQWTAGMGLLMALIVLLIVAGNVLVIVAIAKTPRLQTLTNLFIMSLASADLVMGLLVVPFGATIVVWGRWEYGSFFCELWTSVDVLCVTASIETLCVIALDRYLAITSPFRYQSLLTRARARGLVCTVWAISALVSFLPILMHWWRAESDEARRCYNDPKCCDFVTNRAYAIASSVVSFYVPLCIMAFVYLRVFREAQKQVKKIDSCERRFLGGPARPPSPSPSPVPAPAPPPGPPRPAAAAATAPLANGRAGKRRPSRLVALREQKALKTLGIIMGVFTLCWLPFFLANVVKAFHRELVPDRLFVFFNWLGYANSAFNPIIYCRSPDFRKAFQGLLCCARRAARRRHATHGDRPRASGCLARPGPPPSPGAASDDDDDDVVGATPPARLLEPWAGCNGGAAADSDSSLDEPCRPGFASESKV
UniProt P25100, whole entry, looked up: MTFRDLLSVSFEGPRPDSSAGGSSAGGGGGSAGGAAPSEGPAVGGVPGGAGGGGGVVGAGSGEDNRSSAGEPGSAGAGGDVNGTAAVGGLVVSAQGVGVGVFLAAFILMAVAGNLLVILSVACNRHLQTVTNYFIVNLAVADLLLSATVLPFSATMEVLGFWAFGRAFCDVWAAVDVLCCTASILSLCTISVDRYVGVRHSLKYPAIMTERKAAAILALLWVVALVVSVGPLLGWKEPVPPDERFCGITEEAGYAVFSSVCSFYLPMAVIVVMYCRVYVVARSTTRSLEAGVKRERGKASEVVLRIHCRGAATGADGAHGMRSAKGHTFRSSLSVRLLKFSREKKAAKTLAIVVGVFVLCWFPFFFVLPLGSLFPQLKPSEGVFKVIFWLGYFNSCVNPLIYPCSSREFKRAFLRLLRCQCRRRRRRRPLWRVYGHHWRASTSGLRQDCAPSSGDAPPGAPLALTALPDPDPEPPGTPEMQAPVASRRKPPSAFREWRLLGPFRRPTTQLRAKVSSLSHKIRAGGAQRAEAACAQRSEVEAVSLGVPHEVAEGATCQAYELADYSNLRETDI
UniProt P14416, whole entry, looked up: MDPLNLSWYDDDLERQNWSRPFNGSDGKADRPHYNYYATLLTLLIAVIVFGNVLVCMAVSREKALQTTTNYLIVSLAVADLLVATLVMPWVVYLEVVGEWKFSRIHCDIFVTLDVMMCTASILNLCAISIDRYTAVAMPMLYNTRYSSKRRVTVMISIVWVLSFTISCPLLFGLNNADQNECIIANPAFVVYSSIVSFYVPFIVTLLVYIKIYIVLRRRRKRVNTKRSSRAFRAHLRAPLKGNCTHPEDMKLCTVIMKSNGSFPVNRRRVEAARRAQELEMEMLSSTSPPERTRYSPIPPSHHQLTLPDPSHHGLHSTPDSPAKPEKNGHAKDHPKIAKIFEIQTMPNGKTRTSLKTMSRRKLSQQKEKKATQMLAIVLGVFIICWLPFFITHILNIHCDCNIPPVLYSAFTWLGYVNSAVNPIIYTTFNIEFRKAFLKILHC
UniProt P18089, whole entry, looked up: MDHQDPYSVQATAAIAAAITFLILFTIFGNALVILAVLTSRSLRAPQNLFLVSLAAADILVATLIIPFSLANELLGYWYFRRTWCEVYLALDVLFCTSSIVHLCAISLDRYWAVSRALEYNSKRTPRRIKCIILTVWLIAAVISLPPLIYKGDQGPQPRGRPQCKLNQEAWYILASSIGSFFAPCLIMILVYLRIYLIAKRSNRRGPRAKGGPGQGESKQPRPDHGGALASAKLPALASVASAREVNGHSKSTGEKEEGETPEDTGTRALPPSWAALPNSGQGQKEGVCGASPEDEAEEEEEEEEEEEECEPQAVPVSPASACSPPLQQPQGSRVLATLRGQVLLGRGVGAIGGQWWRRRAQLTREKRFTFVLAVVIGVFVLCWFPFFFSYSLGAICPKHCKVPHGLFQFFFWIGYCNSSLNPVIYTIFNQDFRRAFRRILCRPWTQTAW
UniProt P47898, whole entry, looked up: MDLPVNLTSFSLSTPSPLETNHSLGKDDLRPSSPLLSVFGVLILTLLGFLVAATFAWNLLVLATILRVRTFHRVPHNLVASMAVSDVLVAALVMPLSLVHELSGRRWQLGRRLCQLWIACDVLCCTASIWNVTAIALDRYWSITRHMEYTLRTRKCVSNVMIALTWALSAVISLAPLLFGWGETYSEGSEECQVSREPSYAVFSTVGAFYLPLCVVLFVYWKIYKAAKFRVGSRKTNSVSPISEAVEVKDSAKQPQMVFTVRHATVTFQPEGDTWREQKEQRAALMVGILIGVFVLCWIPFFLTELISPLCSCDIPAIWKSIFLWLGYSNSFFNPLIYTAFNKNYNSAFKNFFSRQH
UniProt P23975, whole entry, looked up: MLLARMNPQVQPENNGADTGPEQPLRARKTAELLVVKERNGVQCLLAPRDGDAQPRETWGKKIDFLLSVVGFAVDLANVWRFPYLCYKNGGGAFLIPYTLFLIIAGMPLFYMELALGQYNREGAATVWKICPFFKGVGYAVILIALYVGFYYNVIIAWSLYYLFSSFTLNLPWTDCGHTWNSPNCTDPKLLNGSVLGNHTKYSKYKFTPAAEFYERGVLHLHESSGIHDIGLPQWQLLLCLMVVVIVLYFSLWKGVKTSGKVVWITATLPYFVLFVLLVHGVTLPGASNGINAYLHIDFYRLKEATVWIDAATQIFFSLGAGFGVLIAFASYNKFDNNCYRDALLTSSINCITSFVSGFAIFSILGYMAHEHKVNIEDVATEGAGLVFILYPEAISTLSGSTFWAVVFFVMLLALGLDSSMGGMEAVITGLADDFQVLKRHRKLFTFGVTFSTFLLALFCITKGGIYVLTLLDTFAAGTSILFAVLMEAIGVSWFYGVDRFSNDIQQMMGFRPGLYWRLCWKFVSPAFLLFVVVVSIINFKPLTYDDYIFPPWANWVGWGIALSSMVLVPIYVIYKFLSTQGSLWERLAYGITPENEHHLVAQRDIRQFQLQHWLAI
UniProt P28223, whole entry, looked up: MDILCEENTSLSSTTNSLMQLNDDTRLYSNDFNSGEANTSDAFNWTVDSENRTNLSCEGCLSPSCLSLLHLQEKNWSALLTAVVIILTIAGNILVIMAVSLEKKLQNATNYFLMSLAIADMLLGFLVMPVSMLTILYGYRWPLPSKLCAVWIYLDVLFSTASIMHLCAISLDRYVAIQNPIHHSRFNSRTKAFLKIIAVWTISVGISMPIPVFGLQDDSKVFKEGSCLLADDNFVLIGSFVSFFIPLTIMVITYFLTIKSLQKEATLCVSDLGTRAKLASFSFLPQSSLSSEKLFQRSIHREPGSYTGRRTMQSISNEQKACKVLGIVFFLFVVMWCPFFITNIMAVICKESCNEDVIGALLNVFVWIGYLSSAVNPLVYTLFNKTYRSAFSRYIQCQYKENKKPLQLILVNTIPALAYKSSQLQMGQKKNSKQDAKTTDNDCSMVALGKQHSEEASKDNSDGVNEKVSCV

How the values were obtained:
[1] = molecular target: Sigma intracellular receptor 2 (Homo sapiens, UniProt Q5BJF2)
[2] = molecular target: 5-hydroxytryptamine receptor 1A (Homo sapiens, UniProt P08908)
[3] = molecular target: 5-hydroxytryptamine receptor 7 (Homo sapiens, UniProt P34969)
[4] = molecular target: Sodium-dependent serotonin transporter (Homo sapiens, UniProt P31645)
D(3) dopamine receptor = D(3) dopamine receptor (Homo sapiens, UniProt P35462)
[5] = molecular target: Alpha-1A adrenergic receptor (Homo sapiens, UniProt P35348)
[6] = molecular target: Sodium-dependent dopamine transporter (Homo sapiens, UniProt Q01959)
Histamine H1 receptor = Histamine H1 receptor (Homo sapiens, UniProt P35367)
[7] = molecular target: Alpha-1B adrenergic receptor (Homo sapiens, UniProt P35368)
[8] = molecular target: 5-hydroxytryptamine receptor 6 (Homo sapiens, UniProt P50406)
D(4) dopamine receptor = D(4) dopamine receptor (Homo sapiens, UniProt P21917)
[9] = molecular target: Alpha-2A adrenergic receptor (Homo sapiens, UniProt P08913)
[10] = molecular target: Muscarinic acetylcholine receptor M5 (Homo sapiens, UniProt P08912); assay: PDSP Secondary Binding target: CHRM5 - Compounds are tested at 10 uM concentration, plate are incubated at room temperature in the dark for 90 minutes. Reaction are stopped by vacuum filtration onto 0.3% polyethyleneimine soaked filter mats using Filtermate harvester. Scintillation cocktail is then melted onto microwave-dried filters on a hot plate and the radio activity is counted in Microbia cou
[11] = molecular target: Alpha-2C adrenergic receptor (Homo sapiens, UniProt P18825)
[12] = molecular target: Beta-1 adrenergic receptor (Homo sapiens, UniProt P08588)
[13] = molecular target: Alpha-1D adrenergic receptor (Homo sapiens, UniProt P25100)
D(2) dopamine receptor = D(2) dopamine receptor (Homo sapiens, UniProt P14416)
[14] = molecular target: Alpha-2B adrenergic receptor (Homo sapiens, UniProt P18089)
[15] = molecular target: 5-hydroxytryptamine receptor 1D (Homo sapiens, UniProt P28221)
[16] = molecular target: Kappa-type opioid receptor (Homo sapiens, UniProt P41145)
[17] = molecular target: 5-hydroxytryptamine receptor 5A (Homo sapiens, UniProt P47898)
Mu-type opioid receptor = Mu-type opioid receptor (Homo sapiens, UniProt P35372)
[18] = molecular target: Sodium-dependent noradrenaline transporter (Homo sapiens, UniProt P23975)
[19] = molecular target: 5-hydroxytryptamine receptor 2A (Homo sapiens, UniProt P28223)

O=C1NCN(c2ccccc2)C12CCN(CCCOc1ccc(F)cc1)CC2
Ki [1]: 899 nM | Ki [2]: 389 nM | Ki [3]: 335 nM | Ki [4]: 210 nM | Ki (D(3) dopamine receptor): 32.8 nM | Ki [5]: 405 nM | Ki [6]: 2750 nM | Ki (Histamine H1 receptor): 308 nM | Ki [7]: 296 nM | Ki [8]: 405 nM | Ki (D(4) dopamine receptor): 4.64 nM | Ki [9]: 2280 nM | Ki [10]: 1310 nM | Ki [11]: 764 nM | Ki [12]: 3130 nM | Ki [13]: 382 nM | Ki (D(2) dopamine receptor): 9.62 nM | Ki [14]: 294 nM | Ki [15]: 1290 nM

O=C1NCN(c2ccccc2)C12CCN(CC1COc3ccccc3O1)CC2 (centres undefined)
Ki [1]: 1010 nM | Ki [3]: 66.1 nM | Ki (D(3) dopamine receptor): 7.74 nM | Ki [16]: 711 nM | Ki [17]: 3800 nM | Ki [5]: 446 nM | Ki (Mu-type opioid receptor): 12.8 nM | Ki [7]: 319 nM | Ki (D(4) dopamine receptor): 19.4 nM | Ki [18]: 2610 nM | Ki [9]: 617 nM | Ki [11]: 8.55 nM | Ki [19]: 702 nM | Ki [13]: 139 nM | Ki (D(2) dopamine receptor): 6.71 nM
